Assay: Intrinsic dissolution rate
Conditions: Table 6

For “ferric citrate [High Purity Ferric Citrate]”, the “Mean Intrinsic Dissolution Rates” value was 2.64 mg/cm^2/min.

Source: US20150079168A1 (Keryx Biopharmaceuticals, Inc., priority 2012, published 2015)
